In this test the test system is multidrug resistant subline VCRd5L. As to the kind of experiment: Antiproliferative activity in multidrug resistant cells. Type of test: cell-based, Chinese hamster.

Structures are written as SMILES.

Compound `CC(=O)O[C@@H](C)/C=C\C(=O)N[C@@H]1C[C@H](C)[C@H](C/C=C(C)/C=C/[C@H]2O[C@](C)(O)C[C@@]3(CO3)[C@@H]2O)O[C@@H]1C` [FR901464] returned a fold resistance (VCRd5L versus DC3F) of 13.5 pm. In addition, the “activity in the multidrug resistant cells” value (in words) is “about an order of magnitude less active”.

Values taken from patent US8309599B2, “Synthesis of FR901464 and analogs with antitumor activity” (University of Pittsburgh-Of The Commonwealth System of …, priority 2006, dated 2012).
